Patent publication US20250009852A1, “DEPLETING EGFR AND HER2 OVERCOMES RESISTANCE TO EGFR INHIBITORS IN COLORECTAL CANCER” (Health Research, Inc., priority 2021, published 2025)

What was measured:
SW48 cells = experiment: MTT cell proliferation assay; type: cell-based, human; conditions: 24, 48 or 72 h, PEPD^G278D 5-250 nM, cetuximab 2.75-275 nM, panitumumab 2.77-277 nM
Experimental: (§1) Cells were grown in 96-well plates. […] The cells were then washed with PBS and mixed with dimethyl sulfoxide (150 μl per well), and cell density was determined by measuring the reduction of MTT to formazan spectroscopically at 570 nm using a Synergy 2 Multi-Mode Microplate Reader (BioTek). In experiments involving siRNA transfection, 2×10^3 HCT116 cells or 6×10^3 HT29 cells were seeded to each well of 96-well plates overnight and then transfected 25 nM siRNA (scramble siRNA, EGFR siRNA or HER2 siRNA) as described above, followed by MTT assay.

SW620 cells = experiment: MTT cell proliferation assay; type: cell-based, human; conditions: SW620 cells (no EGFR, no HER2); 24, 48 or 72 h
Experimental: as §1

[1] = tested on: HER3, MET, IGF1R, SRC, AKT, ERK, MEK; experiment: Western blotting of whole cell lysates: other RTKs and downstream signaling proteins; type: cell-based, human; conditions: 48 h
Experimental: To prepare whole cell lysates, cells were washed with PBS twice, mixed with 1× cell lysis buffer from Cell Signaling Technology supplemented with 2 mM PMSF and a protease inhibitor cocktail from Roche Applied Science, placed on ice for 10 min, sonicated at 0-4° C. to enhance cell lysis using a Branson Model 450 sonifier, and finally centrifuged at 13,000 g for 10 min at 4° C., and the supernatant fraction is collected as whole cell lysate. Tumor and samples were mixed with RIPA buffer (25 mM Tris-HCl, PH7.6, 150 mM NaCl, 1% Nonidet P-40, 1% sodium deoxycholate, and 0.1% SDS), which was supplemented with 2 mM PMSF, the protease inhibitor cocktail mentioned above, phosphatase inhibitor cocktail 2 and phosphatase inhibitor cocktail 3 from Sigma-Aldrich at 14.3 μl buffer per mg tissue, and homogenized in a Dounce homogenizer. The homogenates were cleared by centrifugation at 13,000 g for 15 min at 4° C.
Protein concentrations in all samples were measured using the BCA Assay Kit. For Western blotting, each sample was mixed with 4× loading dye, heated for 5 min at 95° C., and resolved by SDS-PAGE (8-12.5%). Proteins were transferred to polyvinylidene fluoride membrane, probed with specific antibodies, and detected using either Luminata Classico (Millipore) or Luminata Cresendo (Millipore). For IP, cell lysates (0.5 mg protein/sample) were incubated with a desired antibody overnight at 4° C., followed by incubation of 500 μl sample with 30 μl G-Sepharose beads (2 mg/ml) for 1 h at RT. The beads were washed three times with IP buffer, suspended in 2× SDS loading buffer, boiled for 5 min, and analyzed by Western blotting.

SW48 tumors = experiment: Subcutaneous SW48 tumors in SCID mice; type: in vivo, mouse; conditions: sc SW48 tumors; EP 0.5 mg/kg ip daily plus PEPD^G278D 4 mg/kg ip three times weekly, or cetuximab 15 mg/kg ip twice weekly
Experimental: (§2) SCID mice (C.B.17 SCID) were bred by the Laboratory Animal Shared Resource at Roswell Park Comprehensive Cancer Center. Male mice at 7-8 weeks of age were used. All mouse experiments were approved by the Institutional Animal Care and Use Committee at Roswell Park Comprehensive Cancer Center under protocol 1022M. We established subcutaneous tumors by inoculating 1×10^6 HCT116 cells, 4×10^6 HT29 cells, or 2×10^6 SW48 cells to the flank of each mouse in 100 μl of serum free medium. Colon patient-derived xenograft (PDX) 14650 was established from a liver metastatic lesion in a patient treated at Roswell Park Comprehensive Cancer Center. Tumor fragments (˜20 mm^3) from donor mice were implanted into the flank of each mouse subcutaneously using a trocar. […] Subcutaneous tumor volume was measured using length ×width^2÷2. Tumor volume was measured three times each week. Orthotopic tumor growth was monitored by bioluminescence weekly. Mice were given D-luciferin (150 mg/kg) by ip and anesthetized with isoflurane, and tumor burden was measured by bioluminescence using the IVIS Spectrum In Vivo Imaging System (PerkinElmer). Drug treatment was started when significant tumor growth was detected. […] The mice were closely monitored for sign of adverse effects and weighed three times each week. […]

HCT116 tumors = experiment: Subcutaneous HCT116 tumors in SCID mice; type: in vivo, mouse; conditions: sc HCT116 tumors; EP plus PEPD^G278D 4 mg/kg ip three times weekly, or cetuximab 15 mg/kg ip twice weekly
Experimental: as §2

HT29 tumors = experiment: Subcutaneous HT29 tumors in SCID mice; type: in vivo, mouse; conditions: sc HT29 tumors; EP plus PEPD^G278D 4 mg/kg ip three times weekly, or cetuximab 15 mg/kg ip twice weekly
Experimental: as §2

EGFR and HER2 = experiment: Western blotting of tumor homogenates: EGFR and HER2; type: in vivo, mouse; conditions: 24 h after the final dose
Experimental: (§3) To prepare whole cell lysates, cells were washed with PBS twice, mixed with 1× cell lysis buffer from Cell Signaling Technology supplemented with 2 mM PMSF and a protease inhibitor cocktail from Roche Applied Science, placed on ice for 10 min, sonicated at 0-4° C. to enhance cell lysis using a Branson Model 450 sonifier, and finally centrifuged at 13,000 g for 10 min at 4° C., and the supernatant fraction is collected as whole cell lysate. […]
(§4) Protein concentrations in all samples were measured using the BCA Assay Kit. […] Proteins were transferred to polyvinylidene fluoride membrane, probed with specific antibodies, and detected using either Luminata Classico (Millipore) or Luminata Cresendo (Millipore). […] The beads were washed three times with IP buffer, suspended in 2× SDS loading buffer, boiled for 5 min, and analyzed by Western blotting.
(§5) SCID mice (C.B.17 SCID) were bred by the Laboratory Animal Shared Resource at Roswell Park Comprehensive Cancer Center. […] Subcutaneous tumor volume was measured using length ×width^2÷2. Tumor volume was measured three times each week. Orthotopic tumor growth was monitored by bioluminescence weekly. Mice were given D-luciferin (150 mg/kg) by ip and anesthetized with isoflurane, and tumor burden was measured by bioluminescence using the IVIS Spectrum In Vivo Imaging System (PerkinElmer). Drug treatment was started when significant tumor growth was detected. […]

[2] = tested on: HER3, IGF1R, MET, SRC, AKT, ERK, MEK, NRAS, HRAS, caspase 3; experiment: Western blotting of tumor homogenates: other signaling proteins; type: in vivo, mouse; conditions: SW48 tumors, 24 h after the final dose
Experimental: as §3, §4, §5

cetuximab [reference compound]
cell growth measured by MTT assay (SW48 cells): inhibited the growth of SW48 cells in a time- and concentration-dependent manner | cell growth measured by MTT assay (SW620 cells): inactive | effect on MET and ERK ([1]; HCT116, HT29 and SW620 cells, 275-277 nM): neither cetuximab nor panitumumab had any effect | effect on any of the signaling proteins ([1]; HCT116 and HT29 cells, 275 nM): no effect | effect on HER3 and IGF1R ([1]; SW48 cells, 275 nM): no effect | inhibition of tumor growth at the end of treatment (SW48 tumors): 85.8% | tumor growth (HCT116 tumors): neither agent inhibited the growth | tumor growth (HT29 tumors): neither agent inhibited the growth | effect on EGFR, HER2 and ERK in tumors (EGFR and HER2; HCT116 and HT29 tumors): neither PEPD^G278D nor cetuximab had any effect | expression and phosphorylation of EGFR and HER2 in tumors (EGFR and HER2; SW48 tumors): only decreased the expression and phosphorylation of EGFR | ERK phosphorylation in tumors [2]: decreased ERK phosphorylation
